Measurements reported in PubChem BioAssay AID540317 (National Center for Advancing Translational Sciences (NCATS), 2011).
The entries are a selection whose mix differs from that of the whole data set. Inconclusive results are not listed. Calls of active or inactive are those of the source. Calls follow the shape of the dose curve; as a rule, active = well fitted inhibition curve with a large enough effect; inconclusive = small, poorly fitted or top-dose-only effect; inactive = no such curve, though single readings can be large or run the other way.

Sequences of proteins named here, by UniProt entry; tags and fusion partners are left off.
UniProt P83916, whole entry: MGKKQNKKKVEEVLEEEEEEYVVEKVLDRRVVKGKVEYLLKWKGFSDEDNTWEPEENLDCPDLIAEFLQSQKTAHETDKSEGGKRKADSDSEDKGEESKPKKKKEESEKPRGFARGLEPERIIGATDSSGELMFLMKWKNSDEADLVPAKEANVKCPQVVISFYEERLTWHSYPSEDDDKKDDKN

What follows are compounds tested against Chromobox protein homolog 1 (Homo sapiens) (UniProt P83916) (assay: HTS for Inhibitors of HP1-beta Chromodomain Interactions with Methylated Histone Tails). Conditions: AlphaScreen HP1-beta / biotin-H3K9me3 peptide binding; at 114 µM (top of the series).
Also: nearly all actives have a fitted effect of over 70% in size.

Structure (SMILES)	activity change, negative = inhibition
CN(C)CCOC(=O)C(O)(c1ccccc1)C1CCCC1 (centres undefined)	inactive: 28.1%
COc1ccc(OP(C)(=O)Nc2ccccn2)cc1 (centres undefined)	inactive: 47.3%
COc1ccccc1OP(C)(=O)Nc1ccc(Br)cc1 (centres undefined)	inactive: 14.1%
CCc1ccc(OP(C)(=O)O)cc1	inactive: 5.5%
COc1ccccc1OP(C)(=O)Nc1ccc(C)cc1C (centres undefined)	inactive: 18.3%
CP(=O)(Nc1ccccn1)Oc1ccccc1 (centres undefined)	inactive: 16.7%
Cc1c(NP(C)(=O)Oc2ccc(C(C)C)cc2)c(=O)n(-c2ccccc2)n1C (centres undefined)	inactive: 26.8%
COc1ccc(OP(C)(=O)Nc2ccccc2Br)cc1 (centres undefined)	inactive: 24.3%
COc1ccccc1OP(C)(=O)Nc1ccc(C)c(C)c1 (centres undefined)	inactive: 3.82%
Cc1cc(C)cc(OP(C)(=O)Nc2cccc(C(F)(F)F)c2)c1 (centres undefined)	inactive: 41.8%
CP(=O)(Nc1ccc(Cl)cc1Cl)Oc1ccccc1 (centres undefined)	inactive: 42%
CCCCCCCCCCCCCCCC1C[N+](C)(C)CCOP(C)(=O)O1 (centres undefined)	inactive: 12.1%
CP(=O)(OCCOc1ccccc1)OCCOc1ccccc1	inactive: 40.4%
CP(=O)(OC12CC3CC(CC(C3)C1)C2)OC12CC3CC(CC(C3)C1)C2	inactive: 17.9%
CCOC(=O)c1ccc(NP(C)(=O)Oc2ccc(Cl)cc2)cc1 (centres undefined)	inactive: 39.8%
Nc1ccc2c(ccc3cccnc32)n1.O=[N+]([O-])c1cc([N+](=O)[O-])c(O)c([N+](=O)[O-])c1	inactive: 22.7%
CCc1ccc(OP(C)(=O)Nc2cccnc2)cc1 (centres undefined)	inactive: 34.3%
CP(=O)(Oc1ccccc1)N1CCOC1=O (centres undefined)	inactive: 43.3%
O=C(OCCCN1CCCC1)C(O)(c1ccccc1)C1CCCCC1 (centres undefined)	inactive: 25.1%
COc1ccccc1OP(C)(=O)Nc1c(C)n(C)n(-c2ccccc2)c1=O (centres undefined)	inactive: 32.1%
COc1ccc(OP(C)(=O)Nc2ccc(Br)cc2)cc1 (centres undefined)	inactive: 29.6%
CCN(CC)CC(O)COC(=O)C(O)(c1ccccc1)C1CCCCC1 (centres undefined)	inactive: 28.4%
CN(C)C(=O)c1c([N+](=O)[O-])cc([N+](=O)[O-])cc1[N+](=O)[O-]	inactive: 76.5%
CP(=O)(Nc1ccc(Cl)cc1)Oc1ccc(F)cc1 (centres undefined)	inactive: 26.9%
COc1ccccc1OP(C)(=O)Nc1ccccc1Br (centres undefined)	inactive: 21.5%
CC(C)(C)c1ccc(OP(C)(=O)O)cc1	inactive: 35.2%
CCOP(C)(=S)SCC(=O)NC(C)(CC)C(=O)O (centres undefined)	inactive: 46.1%
CP(=O)(Nc1ccc(SC(F)(F)F)cc1)Oc1ccc(F)cc1 (centres undefined)	inactive: 45%
Cc1ccccc1NP(C)(=O)Nc1ccccc1C	inactive: 28.4%
